Data from publication PMC3153478, “Structural Basis for Species Specific Inhibition of 17β-Hydroxysteroid Dehydrogenase Type 1 (17β-HSD1): Computational Study and Biological Validation” (PLoS ONE, 2011).

Amino acid sequences for entries named in this document (tags omitted). Residues count along the entry.
UniProt U3BEV1, 1-387: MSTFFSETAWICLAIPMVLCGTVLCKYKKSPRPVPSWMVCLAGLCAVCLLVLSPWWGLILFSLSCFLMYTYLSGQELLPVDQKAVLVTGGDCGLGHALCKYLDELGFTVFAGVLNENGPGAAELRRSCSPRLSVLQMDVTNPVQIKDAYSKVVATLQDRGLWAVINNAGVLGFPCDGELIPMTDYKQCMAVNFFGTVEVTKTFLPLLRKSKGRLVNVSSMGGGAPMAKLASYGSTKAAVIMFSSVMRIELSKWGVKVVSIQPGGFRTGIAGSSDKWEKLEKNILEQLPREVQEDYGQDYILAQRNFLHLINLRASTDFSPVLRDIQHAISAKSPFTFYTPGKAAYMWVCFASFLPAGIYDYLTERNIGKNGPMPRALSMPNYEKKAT
UniProt Q9GME2, 1-314: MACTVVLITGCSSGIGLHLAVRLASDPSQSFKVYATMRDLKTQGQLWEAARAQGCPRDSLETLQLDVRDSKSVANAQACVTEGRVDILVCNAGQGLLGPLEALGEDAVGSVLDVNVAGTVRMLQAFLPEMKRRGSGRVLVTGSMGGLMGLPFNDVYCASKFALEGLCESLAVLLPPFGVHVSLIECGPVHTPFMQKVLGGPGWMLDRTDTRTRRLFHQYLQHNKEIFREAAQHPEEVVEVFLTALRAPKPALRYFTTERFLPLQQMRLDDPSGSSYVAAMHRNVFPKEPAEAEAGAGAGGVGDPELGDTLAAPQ

Assays:
[1] = tested on: human 17β-HSD2; settings: read-out: Human IC50 17ß-HSD2; Human placental, microsomal fraction, substrate E2, 500 nM, cofactor NAD+, 1500 µM; ref literature (references indicated with the structural formulas in Fig. 3); cited from earlier work
[2] = molecular target: marmoset 17β-HSD2 (Callithrix jacchus, UniProt U3BEV1); assay: Inhibition of marmoset 17β-HSD2 (placental microsomes, tritiated E2, HPLC); type: biochemical, marmoset monkey (callithrix jacchus); settings: read-out: Marmoset IC50 17ß-HSD2; Logit transformed values calculated from % inhibition at 50 nM inhibitor concentration (trend for <30% or >70%); placental microsomal fraction, substrate E2 500 nM, NAD+ 1500 µM
Experimental: Marmoset placental tissue was used as enzyme source and the proteins were partially purified following a described procedure. Tritiated E1 was incubated with 17β-HSD1, cofactor and inhibitor. The separation of substrate and product was performed by HPLC. In an assay similar to the 17β-HSD1 test, marmoset placental microsomes containing 17β-HSD2 were incubated with tritiated E2 in the presence of NAD^+ and inhibitor. Labelled product was quantified after HPLC separation.
[2, 4, 6, 7-^3H]-E1 and [2, 4, 6, 7-^3H]-E2 were bought from Perkin Elmer, Boston. Quickszint Flow 302 scintillator fluid was bought from Zinsser Analytic, Frankfurt. Marmoset 17β-HSD1 and 17β-HSD2 were obtained from marmoset placenta according to previously described procedures. Fresh marmoset placenta was homogenized and cytosolic and microsomal fractions were separated by centrifugation. For the partial purification of 17β-HSD1, the cytosolic fraction was precipitated with ammonium sulfate. 17β-HSD2 was obtained from the microsomal fraction.
The 17β-HSD2 inhibition assay was performed similarly to the 17β-HSD1 procedure. The microsomal fraction was incubated with NAD^+ [1500 µM], test compound and a mixture of unlabelled- and [2, 4, 6, 7-^3H]-E2 (final concentration: 500 nM, 0.11 µCi) for 20 min at 37°C. Further treatment of the samples and HPLC separation was carried out as mentioned above. The conversion rate was calculated after analysis of the resulting chromatograms according to the following equation: [drawing 2] .

[3] = molecular target: marmoset 17β-HSD1 (Callithrix jacchus, UniProt Q9GME2); assay: Inhibition of marmoset 17β-HSD1 (placental cytosolic fraction, tritiated E1, HPLC)
[4] = read-out: Marmoset IC50 17ß-HSD1, Logit transformed values calculated from % inhibition, inhibitor concentration: 5 nM, substrate E1 500 nM, NADH 500 µM

Row | Compound | IC50 [1] [nM] | IC50 [2] [nM] | IC50 [3, 4] [nM] | IC50 ([3]; read-out: Marmoset IC50 17ß-HSD1, Logit transformed values calculated from % inhibition at 50 nM inhibitor concentration (trend for <30% or >70%), substrate E1 500 nM, NADH 500 µM) [nM]
1 | Cc1cc(-c2csc(-c3cccc(O)c3)c2)ccc1O | 869 | > 50 | 3 | 
2 | Oc1cccc(-c2cc(-c3ccc(O)c(F)c3)cs2)c1 |  | 72 |  | < 50
3 | Oc1ccc(-c2csc(-c3cccc(O)c3)c2)cc1 |  | > 50 | 2 | 
4 | Oc1ccc(-c2cc(-c3cccc(O)c3)cs2)cc1 | 1690 | > 50 | 4 | 

Where two headings read alike, the source gives them in different places.
